{
  "source": "patent US4762846A",
  "about": "(priority 1986, dated 1988)",
  "origin": "cited, not measured here",
  "key": {"muscarinic receptors": {"system": "muscarinic receptors", "settings": "in vitro, Rafferty, et al; cited from earlier work"}, "[1]": {"system": "benzodiazepine receptors ([3H]diazepam site)", "settings": "in vitro, Rafferty, et al; cited from earlier work"}},
  "data": [
    {"molecule": "S=C=Nc1cccc(C2(N3CCCCC3)CCCCC2)c1", "note": "[Metaphit, 1-[1-(3-isothiocyanatophenyl)cyclohexyl]piperidine]", "values": [
      {"measurement": "acylation of muscarinic receptors", "setting": "muscarinic receptors", "value": "not to acylate opioid, muscarinic"},
      {"measurement": "acylation of benzodiazepine receptors", "setting": "[1]", "value": "not to acylate opioid, muscarinic, or benzodiazepine receptors"}
    ]}
  ]
}
